Experimental data as given in ChEMBL document CHEMBL5108009, “Positron Emission Tomography (PET) Imaging Tracers for Serotonin Receptors” (J Med Chem, 2022).

The chains behind the UniProt entries cited, without tags or fusion partners.
UniProt P28222, whole entry: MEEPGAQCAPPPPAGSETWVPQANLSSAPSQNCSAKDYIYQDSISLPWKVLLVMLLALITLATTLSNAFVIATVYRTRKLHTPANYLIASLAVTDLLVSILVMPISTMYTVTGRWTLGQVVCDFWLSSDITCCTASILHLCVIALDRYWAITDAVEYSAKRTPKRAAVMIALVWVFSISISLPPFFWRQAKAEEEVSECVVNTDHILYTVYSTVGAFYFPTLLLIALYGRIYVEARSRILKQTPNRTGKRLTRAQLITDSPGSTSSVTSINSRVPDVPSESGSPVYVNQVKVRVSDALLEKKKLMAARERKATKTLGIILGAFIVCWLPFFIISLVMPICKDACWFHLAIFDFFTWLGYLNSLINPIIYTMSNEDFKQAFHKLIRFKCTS

Target: 5-hydroxytryptamine receptor 1B (Homo sapiens, UniProt P28222)

Ki: > 500 nM
SMILES: CN(C)[C@@H]1CCc2[nH]c3ccc(NC(=O)c4ccc(F)cc4)cc3c2C1
